The record followed here is US20210163896A1, “METHOD FOR PRODUCING ANIMAL CELL CONTAINING DNA OF INTEREST USING MICRONUCLEATE CELL FUSION METHOD” (NATIONAL UNIVERSITY CORPORATION TOTTORI UNIVERSITY, priority 2018, published 2021).

The subject of series [1] is HT1080 HPRT defective cell line.
Series [2] concerns foreign Chromosome X-comprising HT1080 HPRT deficient cell line.
Series [3] relates to HT1080 wild type cell line.

Each structure is given as a SMILES string.

Take `Nc1nc2nc[nH]c2c(=S)[nH]1` [6-thioguanine]: the “cytotoxicity with 6-thioguanine” value in series [1] was “insensitive”; in series [2] it was “cytotoxicity with 6-thioguanine was observed”; in series [3], “underwent cytotoxicity”.
